{"sequences": {"note": "Amino acid sequences for entries named in this document (tags omitted).", "UniProt P10415, whole entry": "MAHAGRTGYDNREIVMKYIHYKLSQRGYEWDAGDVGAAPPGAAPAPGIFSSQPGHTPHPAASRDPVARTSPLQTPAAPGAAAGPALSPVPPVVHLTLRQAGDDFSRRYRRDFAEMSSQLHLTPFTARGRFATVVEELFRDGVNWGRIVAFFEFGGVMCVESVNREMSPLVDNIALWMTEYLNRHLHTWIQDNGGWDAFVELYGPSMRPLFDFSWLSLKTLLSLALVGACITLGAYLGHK"}, "source": "patent US20240166646A1", "about": "“1H-PYRROLO[2,3-B]PYRIDINE DERIVATIVES AS BCL-2 INHIBITORS FOR THE TREATMENT OF NEOPLASTIC AND AUTOIMMUNE DISEASES” (Newave Pharmaceutical Inc., priority 2020, published 2024)", "origin": "cited, not measured here", "target": "Bcl-2 (Homo sapiens (Human), UniProt P10415)", "conditions": "cited from earlier work"}
{"molecule": "CC1(C)CCC(c2ccc(Cl)cc2)=C(CN2CCN(c3ccc(C(=O)NS(=O)(=O)c4ccc(N[C@H](CCN5CCOCC5)CSc5ccccc5)c(S(=O)(=O)C(F)(F)F)c4)cc3)CC2)C1", "note": "[ABT-263]", "values": [{"measurement": "Ki", "result": "≤ 1", "unit": "nM"}]}
